The experiment deals with TLN1 PTB (Homo sapiens, UniProt Q9Y490). It is filed as binding.

The chains behind the UniProt entries cited, without tags or fusion partners. Residues count along the entry.
UniProt Q9Y490, 309-401: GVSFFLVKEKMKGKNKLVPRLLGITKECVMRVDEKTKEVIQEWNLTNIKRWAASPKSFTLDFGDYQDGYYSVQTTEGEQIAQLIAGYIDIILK

Take TDERSWVYSPLHYSAQ R4L (TDELSWVYSPLHYSAQ): the “DMS-derived PSSM value of the single-substitution variant” value (from here on “DMS-derived PSSM value”) was determined as 0.1062. Next, TDERSWVYSPLHYSAQ R4M (TDEMSWVYSPLHYSAQ): 0.01709. Next, TDERSWVYSPLHYSAQ R4N (TDENSWVYSPLHYSAQ): 0.02052. As for TDERSWVYSPLHYSAQ R4P (TDEPSWVYSPLHYSAQ), the figure is 0.01303; as for TDERSWVYSPLHYSAQ R4Q (TDEQSWVYSPLHYSAQ), 0.05478. For the sequence TDERSWVYSPLHYSAQ R4R, the “DMS-derived PSSM value” value was 0.1255.

Consider TDERSWVYSPLHYSAQ R4S (TDESSWVYSPLHYSAQ), for which the “DMS-derived PSSM value” value was 0.08737. As for TDERSWVYSPLHYSAQ R4T (TDETSWVYSPLHYSAQ), the figure is 0.01177; as for TDERSWVYSPLHYSAQ R4V (TDEVSWVYSPLHYSAQ), 0.03649. Turning to TDERSWVYSPLHYSAQ R4W (TDEWSWVYSPLHYSAQ), the “DMS-derived PSSM value” value was 0.006906. Next, TDERSWVYSPLHYSAQ R4Y (TDEYSWVYSPLHYSAQ): 0.06001; TDERSWVYSPLHYSAQ S5A (TDERAWVYSPLHYSAQ): 0.06991; TDERSWVYSPLHYSAQ S5D (TDERDWVYSPLHYSAQ): 0.1255. On to TDERSWVYSPLHYSAQ S5E (TDEREWVYSPLHYSAQ), for which the “DMS-derived PSSM value” value worked out at 0.07535. As for TDERSWVYSPLHYSAQ S5F (TDERFWVYSPLHYSAQ), the figure is 0.003602; as for TDERSWVYSPLHYSAQ S5G (TDERGWVYSPLHYSAQ), 0.003016. Next, TDERSWVYSPLHYSAQ S5H (TDERHWVYSPLHYSAQ): 0.02304. As for TDERSWVYSPLHYSAQ S5I (TDERIWVYSPLHYSAQ), the figure is 0.1035; as for TDERSWVYSPLHYSAQ S5K (TDERKWVYSPLHYSAQ), 0.01128. With TDERSWVYSPLHYSAQ S5L (TDERLWVYSPLHYSAQ), the “DMS-derived PSSM value” value is given as 0.09095. As for TDERSWVYSPLHYSAQ S5M (TDERMWVYSPLHYSAQ), the figure is 0.07254; as for TDERSWVYSPLHYSAQ S5N (TDERNWVYSPLHYSAQ), 0.003923; as for TDERSWVYSPLHYSAQ S5P (TDERPWVYSPLHYSAQ), 0.0575. As for TDERSWVYSPLHYSAQ S5Q (TDERQWVYSPLHYSAQ), the figure is 0.01157; as for TDERSWVYSPLHYSAQ S5R (TDERRWVYSPLHYSAQ), 0.009424.

With TDERSWVYSPLHYSAQ S5S, the “DMS-derived PSSM value” value turned out to be 0.106. As for TDERSWVYSPLHYSAQ S5T (TDERTWVYSPLHYSAQ), the figure is 0.2046. Next, TDERSWVYSPLHYSAQ S5V (TDERVWVYSPLHYSAQ): 0.008572; TDERSWVYSPLHYSAQ S5W (TDERWWVYSPLHYSAQ): 0.01123.

For TDERSWVYSPLHYSAQ S5Y (TDERYWVYSPLHYSAQ), the “DMS-derived PSSM value” value amounted to 0.008405. Next, TDERSWVYSPLHYSAQ S9A (TDERSWVYAPLHYSAQ): 0.05967. Consider TDERSWVYSPLHYSAQ S9D (TDERSWVYDPLHYSAQ), for which the “DMS-derived PSSM value” value is on record as 0.006284. Next, TDERSWVYSPLHYSAQ S9E (TDERSWVYEPLHYSAQ): 0.005796. Take TDERSWVYSPLHYSAQ S9F (TDERSWVYFPLHYSAQ): the “DMS-derived PSSM value” value was found to be 0.002289.

In the case of TDERSWVYSPLHYSAQ S9G (TDERSWVYGPLHYSAQ), the “DMS-derived PSSM value” value worked out at 0.0005945. Next, TDERSWVYSPLHYSAQ S9H (TDERSWVYHPLHYSAQ): 0.01252. As for TDERSWVYSPLHYSAQ S9I (TDERSWVYIPLHYSAQ), the figure is 0.001144. As for TDERSWVYSPLHYSAQ S9K (TDERSWVYKPLHYSAQ), the figure is 0.

For the sequence TDERSWVYSPLHYSAQ S9L (TDERSWVYLPLHYSAQ), the “DMS-derived PSSM value” value is recorded as 0. Next, TDERSWVYSPLHYSAQ S9M (TDERSWVYMPLHYSAQ): 0.02329. Next, TDERSWVYSPLHYSAQ S9N (TDERSWVYNPLHYSAQ): 0.1851; TDERSWVYSPLHYSAQ S9P (TDERSWVYPPLHYSAQ): 0.0174.

Take TDERSWVYSPLHYSAQ S9Q (TDERSWVYQPLHYSAQ): the “DMS-derived PSSM value” value was found to be 0.0041.

As for TDERSWVYSPLHYSAQ S9R (TDERSWVYRPLHYSAQ), the “DMS-derived PSSM value” value was determined as 0.0008833. As for TDERSWVYSPLHYSAQ S9S, the figure is 0.626; as for TDERSWVYSPLHYSAQ S9T (TDERSWVYTPLHYSAQ), 0.04707. As for TDERSWVYSPLHYSAQ S9V (TDERSWVYVPLHYSAQ), the figure is 0.002911; as for TDERSWVYSPLHYSAQ S9W (TDERSWVYWPLHYSAQ), 0; as for TDERSWVYSPLHYSAQ S9Y (TDERSWVYYPLHYSAQ), 0.004881. In the case of “TDERSWVYSPLHYSAQ S14A (TDERSWVYSPLHYAAQ)”, the “DMS-derived PSSM value” value is on record as 0.02095. As for “TDERSWVYSPLHYSAQ S14D (TDERSWVYSPLHYDAQ)”, the figure is 0.09191; as for “TDERSWVYSPLHYSAQ S14E (TDERSWVYSPLHYEAQ)”, 0.004715. As for “TDERSWVYSPLHYSAQ S14F (TDERSWVYSPLHYFAQ)”, the figure is 0.03519. On to “TDERSWVYSPLHYSAQ S14G (TDERSWVYSPLHYGAQ)”, for which the “DMS-derived PSSM value” value came out at 0.01063. As for “TDERSWVYSPLHYSAQ S14H (TDERSWVYSPLHYHAQ)”, the figure is 0.05425. Turning to “TDERSWVYSPLHYSAQ S14I (TDERSWVYSPLHYIAQ)”, the “DMS-derived PSSM value” value is recorded as 0.002934. Next, “TDERSWVYSPLHYSAQ S14K (TDERSWVYSPLHYKAQ)”: 0.01183; “TDERSWVYSPLHYSAQ S14L (TDERSWVYSPLHYLAQ)”: 0.01761. “TDERSWVYSPLHYSAQ S14M (TDERSWVYSPLHYMAQ)”: the “DMS-derived PSSM value” value is listed as 0.0475. For the sequence “TDERSWVYSPLHYSAQ S14N (TDERSWVYSPLHYNAQ)”, the “DMS-derived PSSM value” value is recorded as 0.02523. Next, “TDERSWVYSPLHYSAQ S14P (TDERSWVYSPLHYPAQ)”: 0.005566. Take “TDERSWVYSPLHYSAQ S14Q (TDERSWVYSPLHYQAQ)”: the “DMS-derived PSSM value” value is reported as 0.01646. For “TDERSWVYSPLHYSAQ S14R (TDERSWVYSPLHYRAQ)”, the “DMS-derived PSSM value” value is on record as 0.003044. Next, TDERSWVYSPLHYSAQ S14S: 0.103; “TDERSWVYSPLHYSAQ S14T (TDERSWVYSPLHYTAQ)”: 0.1659; “TDERSWVYSPLHYSAQ S14V (TDERSWVYSPLHYVAQ)”: 0.2377.

Regarding “TDERSWVYSPLHYSAQ S14W (TDERSWVYSPLHYWAQ)”, the “DMS-derived PSSM value” value is recorded as 0.1224. As for “TDERSWVYSPLHYSAQ S14Y (TDERSWVYSPLHYYAQ)”, the figure is 0.02333; as for TDERSWVYSPLHYSAQ T1A (ADERSWVYSPLHYSAQ), 0.09419; as for TDERSWVYSPLHYSAQ T1D (DDERSWVYSPLHYSAQ), 0.05547. With TDERSWVYSPLHYSAQ T1E (EDERSWVYSPLHYSAQ), the “DMS-derived PSSM value” value came out at 0.1316. In the case of TDERSWVYSPLHYSAQ T1F (FDERSWVYSPLHYSAQ), the “DMS-derived PSSM value” value stood at 0.04961.

TDERSWVYSPLHYSAQ T1G (GDERSWVYSPLHYSAQ): the “DMS-derived PSSM value” value is on record as 0.07139. As to TDERSWVYSPLHYSAQ T1H (HDERSWVYSPLHYSAQ), the “DMS-derived PSSM value” value is 0.02118. As for TDERSWVYSPLHYSAQ T1I (IDERSWVYSPLHYSAQ), the figure is 0.02349; as for TDERSWVYSPLHYSAQ T1K (KDERSWVYSPLHYSAQ), 0.0276.

As to TDERSWVYSPLHYSAQ T1L (LDERSWVYSPLHYSAQ), the “DMS-derived PSSM value” value worked out at 0.01584. Next, TDERSWVYSPLHYSAQ T1M (MDERSWVYSPLHYSAQ): 0.009054.

In the case of TDERSWVYSPLHYSAQ T1N (NDERSWVYSPLHYSAQ), the “DMS-derived PSSM value” value came to 0.005806.

Regarding TDERSWVYSPLHYSAQ T1P (PDERSWVYSPLHYSAQ), the “DMS-derived PSSM value” value stood at 0.03125. As for TDERSWVYSPLHYSAQ T1Q (QDERSWVYSPLHYSAQ), the figure is 0.0308; as for TDERSWVYSPLHYSAQ T1R (RDERSWVYSPLHYSAQ), 0.08446; as for TDERSWVYSPLHYSAQ T1S (SDERSWVYSPLHYSAQ), 0.07038.

In the case of TDERSWVYSPLHYSAQ T1T, the “DMS-derived PSSM value” value is reported as 0.2049.

Source of the values: paper PMC12102759 (Protein Science : A Publication of the Protein Society, 2025).
